Assay: Cannabinoid profile of crystalline product samples by HPLC-DAD-MS analysis (cannabinoid preservation)
Conditions: sucrose, without rapid cooling process, from RB Fat

Compound	Cannabinoid quantity in Sample R103C
CCCCCc1cc(O)c2c(c1)OC(C)(CCC=C(C)C)C=C2 (centres unmarked) [CBC, Cannabichromene]	0.42 mg/g
CCCCCc1cc(O)c(C/C=C(\C)CCC=C(C)C)c(O)c1 [CBG, Cannabigerol]	0.26 mg/g
CCCCCc1cc2c(c(O)c1C(=O)O)C1C3C(CCC3(C)O2)C1(C)C (centres unmarked) [CBL-A, cannabicyclol acid]	0.35 mg/g
CCCCCc1cc(O)c2c(c1)OC(C)(C)c1ccc(C)cc1-2 [CBN, Cannabinol]	1.16 mg/g
CCCCCc1cc2c(c(O)c1C(=O)O)[C@@H]1C=C(C)CC[C@H]1C(C)(C)O2 [THC-A, Tetrahydrocannabinolic acid]	3.08 mg/g
CCCc1cc(O)c2c(c1)OC(C)(C)[C@@H]1CCC(C)=C[C@@H]21 [THCV, Tetrahydrocannabivarin]	0.15 mg/g
CCCCCc1cc(O)c2c(c1)OC(C)(C)[C@@H]1CC=C(C)C[C@@H]21 [Δ8-THC, Δ-8-tetrahydrocannabinol]	0.18 mg/g
CCCCCc1cc(O)c2c(c1)OC(C)(C)[C@@H]1CCC(C)=C[C@@H]21 [Δ9-THC, Δ-9-tetrahydrocannabinol, reference compound]	15.64 mg/g
